Experimental data reported in patent US9289488B2, “Vaccine engineering” (AC Immune SA, priority 2010, dated 2016).

Legend:
[1] = CD spectroscopy of peptide secondary structure; assay type: physicochemical; details: PBS; palmitoylated peptides in liposomes, acetylated peptides alone
Method: • CD spectra were acquired on a Jasco-815 spectropolarimeter (Japan) with a 0.1 cm path length quartz cuvette at 23° C. Measurements were made with a 1.0 nm bandwidth and 0.5 nm resolution. A scan speed of 50 nm/min was employed with response time of 1 s. Solvent control spectra (4 scans) were averaged and subtracted from the average of 8 scans of each sample spectra. All spectra ([θ]obs, degrees) were smoothed after being converted to mean residue molar ellipticity ([θ], degrees cm^2 dmol^−1) with the equation [θ]=[θ]obs×(MRW/10lc), where MRW is the mean residue molecular weight (MW/number of residues), l is the optical path length (cm) and c is the concentration (g/cm^3). For analysis liposomal suspensions were diluted 6-fold in PBS to give final peptide concentrations between 10 to 40 μM. Spectra of the corresponding empty liposomes lacking peptide were subtracted. A2 ThT Fluorescence. • Fluorescence emission spectra were measured at 25° C. on a Tecan M200 spectrofluorimeter with an excitation of 440 nm. Liposomes were diluted 8-fold in PBS to give a final peptide concentration of 15 μM and then ThT added at different concentrations. Data were fitted using non-linear regression analysis (SigmaPlot v10.0) assuming single-site binding saturation in order to calculate apparent Kd and maximal binding Bmax. A3 Disaggregation Assay Using ThT Fluorescence. • ZnCl2, FeCl3 or CuCl2 (2 μL, 1 mM in H2O) were incubated with liposomes diluted 4-fold in PBS (48 μL) for 2 h at 22° C. PBS (48 μL) with or without DPTA (0.4 mM) was added accordingly after 5 min. ThT (2 μL, 2.4 mM in H2O) was then added and fluorescence measured after a further 5 min. For disaggregation with small molecules, Rosmarinic acid, Tannic acid or Methylene Blue (2 μL, 2.7 mM in PBS) were added to 86 μL of liposomes diluted 8-fold with PBS. After 2 h incubation at RT, ThT (2 μL, 2.4 mM in H2O) was added and after 10 min. fluorescence was measured at 490 nm (Ex. 440 nm). A4 MAS-NMR Spectroscopy. • Experiments were conducted using a 3.2 mm triple-resonance (^1H, ^13C, ^15N) MAS probe (Bruker Biospin, Germany) at a static magnetic field of 16.4 T corresponding to 700 MHz proton resonance frequency. For analysis, the amino acids A(2), S(9) and G(10) of Palm1-15 were uniformly labeled with ^13C and ^15N. […] Experiments were recorded using 10 kHz MAS and at effective sample temperature of about 4° C. After a cross polarization (CP) step employing a contact time of 600 μs, the SPC5 pulse sequence was used for generation of DQ coherence, with a ^13C radio frequency (r.f.) field strength of 50 kHz and DQ excitation and reconversion time totaling 2.28 ms. Acquisition involved in each case 110K repetitions. An ^1H field strength of 83.3 kHz was used during excitation and SPINAL64 proton decoupling. A5 SPR Analysis of Peptide-Liposome Interactions. • Experiments were performed at 25° C. using 0.2 μm filtered and degassed PBS as running buffer. An L1 sensor chip (GE Healthcare, Sweden) was docked into a BIAcore 1000 instrument and the chip surface conditioned by injection of 50 μL of Zwittergent at 30 μL/min. Liposomes lacking peptide (‘empty’ liposomes) were then immobilized onto the sensor chip following 2 successive injections of 50 μL at 2 μL/min. Finally 50 μL of 50 mM NaOH was injected over the surface at 30 μL/min in order to render the surface more unilamellar. After this wash step typically around 8000 RUs of liposomes remained immobilized. […]

[2] = ThT fluorescence binding to liposomal peptide constructs; details: for Kd: ThT binding, read-out: App. Kd; for Bmax (50-fold dilution) / Bmax (8-fold dilution): different lipidation patterns; for ThT fluorescence emission (in words): emission at 485 nm, excitation 440 nm, PBS
Method: • CD spectra were acquired on a Jasco-815 spectropolarimeter (Japan) with a 0.1 cm path length quartz cuvette at 23° C. Measurements were made with a 1.0 nm bandwidth and 0.5 nm resolution. A scan speed of 50 nm/min was employed with response time of 1 s. Solvent control spectra (4 scans) were averaged and subtracted from the average of 8 scans of each sample spectra. All spectra ([θ]obs, degrees) were smoothed after being converted to mean residue molar ellipticity ([θ], degrees cm^2 dmol^−1) with the equation [θ]=[θ]obs×(MRW/10lc), where MRW is the mean residue molecular weight (MW/number of residues), l is the optical path length (cm) and c is the concentration (g/cm^3). […] Spectra of the corresponding empty liposomes lacking peptide were subtracted. A2 ThT Fluorescence. • Fluorescence emission spectra were measured at 25° C. on a Tecan M200 spectrofluorimeter with an excitation of 440 nm. […] Data were fitted using non-linear regression analysis (SigmaPlot v10.0) assuming single-site binding saturation in order to calculate apparent Kd and maximal binding Bmax. A3 Disaggregation Assay Using ThT Fluorescence. • ZnCl2, FeCl3 or CuCl2 (2 μL, 1 mM in H2O) were incubated with liposomes diluted 4-fold in PBS (48 μL) for 2 h at 22° C. PBS (48 μL) with or without DPTA (0.4 mM) was added accordingly after 5 min. ThT (2 μL, 2.4 mM in H2O) was then added and fluorescence measured after a further 5 min. For disaggregation with small molecules, Rosmarinic acid, Tannic acid or Methylene Blue (2 μL, 2.7 mM in PBS) were added to 86 μL of liposomes diluted 8-fold with PBS. After 2 h incubation at RT, ThT (2 μL, 2.4 mM in H2O) was added and after 10 min. fluorescence was measured at 490 nm (Ex. 440 nm). A4 MAS-NMR Spectroscopy. • Experiments were conducted using a 3.2 mm triple-resonance (^1H, ^13C, ^15N) MAS probe (Bruker Biospin, Germany) at a static magnetic field of 16.4 T corresponding to 700 MHz proton resonance frequency. […] Experiments were recorded using 10 kHz MAS and at effective sample temperature of about 4° C. After a cross polarization (CP) step employing a contact time of 600 μs, the SPC5 pulse sequence was used for generation of DQ coherence, with a ^13C radio frequency (r.f.) field strength of 50 kHz and DQ excitation and reconversion time totaling 2.28 ms. Acquisition involved in each case 110K repetitions. An ^1H field strength of 83.3 kHz was used during excitation and SPINAL64 proton decoupling. A5 SPR Analysis of Peptide-Liposome Interactions. • Experiments were performed at 25° C. using 0.2 μm filtered and degassed PBS as running buffer. An L1 sensor chip (GE Healthcare, Sweden) was docked into a BIAcore 1000 instrument and the chip surface conditioned by injection of 50 μL of Zwittergent at 30 μL/min. Liposomes lacking peptide (‘empty’ liposomes) were then immobilized onto the sensor chip following 2 successive injections of 50 μL at 2 μL/min. Finally 50 μL of 50 mM NaOH was injected over the surface at 30 μL/min in order to render the surface more unilamellar. […] 50 μL of acetylated peptides solubilized in PBS were then injected over the surface over a range of concentrations at a flow rate of 30 μL/min, followed by dissociation with PBS for 300 s. After analysis of the interaction of different peptides, a fresh lipid bilayer was immobilized. A6 Dynamic Light Scattering. • Liposome samples were diluted 100-fold with PBS. Analysis was performed using a Zetasizer Nano (Malvern, USA) at 25° C. Data was analyzed with DTS 5.0 (Malvern) software by signal intensity in order to calculate the average liposome diameter and polydispersity index (PDI).

[3] = different lipidation patterns (Table 5)

| Substance | Secondary structure by CD spectroscopy [1] | Kd [2, 3] [µM] | Bmax (50-fold dilution) [2] | ThT fluorescence emission (in words) [2] | Bmax (8-fold dilution) [2] | Kd ([2]; liposomes DMPC/DMPG/cholesterol/MPLA 9:1:7:0.06, diluted 8-fold, single site fit) [µM] | Bmax ([2]; ThT fluorescence at saturation, liposomes DMPC/DMPG/cholesterol/MPLA 9:1:7:0.06, diluted 8-fold) | Bmax (% rel. ACI-24) ([2]; relative to ACI-24 (Palm1-15)) [%] |
| --- | --- | --- | --- | --- | --- | --- | --- | --- |
| H-DAEFRHDSGYEVHHQ-K(Palm)-K(Palm)-K(Palm)-K(Palm)-OH [Palm1-15(4C)] | classical β-sheet CD spectra | 1.5 | 31756 | much higher ThT fluorescence emission | – | – | – | – |
| H-DAEFRHDSGYEVHHQ-K(Palm)-K(Palm)-OH [Palm1-15(2C)] | classical β-sheet CD spectra | 4.3 | – | – | 31898 | – | – | – |
| H-DAEFRHDSGYEVHHQ-K(Palm)-OH [Palm1-15(1C)] | mixture of random coil and β-sheet conformations | 5.6 | – | only a very low signal | 7093 | – | – | – |
| H-K(Butanoyl)-K(Butanoyl)-DAEFRHDSGYEVHHQ-K(Butanoyl)-K(Butanoyl)-OH [Butyl 1-15] | – | 7.3 | – | – | 476 | – | – | – |
| H-K(Dodecanoyl)-K(Dodecanoyl)-DAEFRHDSGYEVHHQ-K(Dodecanoyl)-K(Dodecanoyl)-OH [Dodecyl 1-15] | – | 1.2 | – | – | 26415 | – | – | – |
| H-K(Octanoyl)-K(Octanoyl)-DAEFRHDSGYEVHHQ-K(Octanoyl)-K(Octanoyl)-OH [Octyl 1-15] | – | 5.8 | – | – | 9184 | – | – | – |
| H-K(Palm)-DAEFRHDSGYEVHHQ-K(Palm)-OH [Palm1-15(1N1C)] | extended β-strand conformation | 35.1 | – | only very weakly fluorescent | 2488 | – | – | – |
| H-K(X)-K(X)-DAEFRHDSGYEVHHQ-K(X)-K(X)-OH [Palm1-15] | β-sheet secondary structure | – | 8140 | – | 36318 | 2.4 | 36318 | 100 |

Read-outs that look alike come from different tables or passages of the source.
